{"source": "patent US20090005270A1", "about": "(priority 2005, published 2009)", "assay": "Propofol detection in exhaled breath of volunteers (Hazmatcad SAW sensor, SPME GC-MS)"}
{"compound": "CC(C)c1cccc(C(C)C)c1O", "values": [{"measurement": "GC-MS propofol peak abundance in exhaled breath", "setting": "calculated effect site concentration 0.3 μg/mL (FIG. 8)", "value": "1,200,000 counts"}, {"measurement": "GC-MS propofol peak abundance in exhaled breath", "setting": "calculated effect site concentration 0.5 μg/mL (FIG. 6)", "value": "80,000 counts"}, {"measurement": "GC-MS propofol peak abundance in exhaled breath", "setting": "calculated effect site concentration 1.0 μg/mL (FIG. 7)", "value": "2,200,000 counts"}, {"measurement": "exhaled breath concentration (SPME and Hazmatcad) versus measured blood propofol concentration", "setting": "single subject, semiquantitative", "value": "did correlate"}, {"measurement": "detection in exhaled breath samples using the Hazmatcad", "setting": "volunteers, low sedative doses", "value": "detected in all exhaled breath samples"}]}
